Where two headings read alike, the source gives them in different places.
Assays:
[1] = USP method, crystallinity factor from XRPD areas A, B, C; hydrochloride
[2] = for hygroscopicity (DVS, overall conclusion): 0 to 95% RH
[3] = Crystallinity by XRPD of salt forms from Example 3.2; type: physicochemical; conditions: 1 g scale, isopropanol
Method: • Angle: 2θ=2° to 2θ=40° • Sampling width 0.02 • Measurement time: 75 minutes.
Solid was positioned on sample holder, prepared with grease and flattened with a disc of glass.

[4] = Hygroscopicity (DVS) of salt forms from Example 3.2; type: physicochemical; conditions: for hygroscopicity: 1 g scale, isopropanol, DVS
Source text: VTI-SA by TA Instruments with Isotherm Software for data acquisition and handling, glass sample holder and de-ionised water for vapour production.

[5] = Solubility in water of salt forms from 1 g scale salt screening in isopropanol
Source text: For such salts with a clear stoichiometry, their preparation was then repeated on 1 g scale (free base) in isopropanol with the acid slowly being added followed by seeding (seeds as obtained from the screening experiment). The solids were then further characterized with regard to: • Handling of crystals, • Crystal habit (microscopy, macroscopic): presence and shape of crystals, • Crystallinity (quality of crystals, XRPD), • Thermal analysis (DSC and TGA), • Hygroscopicity (DVS), and • Solubility in water.

In the case of `CCCOc1ccc([C@H]2CNC(=O)N2c2ccc3[nH]cnc3c2)cc1.Cl` [Ex. 4.2, (S)-1-(1H-benzo[d]imidazol-5-yl)-5-(4-propoxyphenyl) imidazolidin-2-one hydrochloride], the Degree of crystallinity [1] is reported as 64%, the “hygroscopicity (DVS, overall conclusion)” value ([2]; 25° C., listed as HCl salt prepared according to Example 4.2, hydrochloride) is reported as “hygroscopic” and the “final mass gain (water sorption) compared to the initial mass” value ([2]; 95% RH, 25° C.) is reported as 5-6%. The “hygroscopicity up to 55% RH (DVS)” value ([2]; up to 55% RH, 25° C.) was “no hygroscopicity”.

With `CCCOc1ccc([C@H]2CNC(=O)N2c2ccc3[nH]cnc3c2)cc1.Cl` [Ex. 4.3, (S)-1-(1H-benzo[d]imidazol-5-yl)-5-(4-propoxyphenyl) imidazolidin-2-one hydrochloride] the Degree of crystallinity [1] was 68%, the “hygroscopicity (DVS, overall conclusion)” value ([2]; 25° C., listed as HCl salt prepared according to Example 4.3, hydrochloride) was “not to be hygroscopic” and the “mass gain in DVS over the complete range of RH” value ([2]; complete range of RH) was “no mass gain”.

For `CCCOc1ccc([C@H]2CNC(=O)N2c2ccc3[nH]cnc3c2)cc1` [TosOH], the “crystallinity (by XRPD)” value [3] was “good” and the hygroscopicity [4] was “low”.

With `CCCOc1ccc([C@H]2CNC(=O)N2c2ccc3[nH]cnc3c2)cc1.Cl` [Varoglutamstat Hydrochloride, (S)-1-(1H-benzo[d]imidazol-5-yl)-5-(4-propoxyphenyl) imidazolidin-2-one hydrochloride] the solubility ([5]; 20 °C, water, thermodynamic from solid) was 130 mM, the “solubility in water higher than the tosylate salt by” value ([5]; hydrochloride versus tosylate) was “two orders of magnitude” and the “crystallinity (by XRPD)” value [3] was “good”. For the same compound, the hygroscopicity [4] was “high”, the “hygroscopicity (DVS, words)” value ([4]; material of Example 3.2) was “very hygroscopic” and the “water uptake (DVS)” value ([4]; material of Example 3.2, 25° C., up to 98% RH, uptake not finished at maximum humidity) was “more than 16 % w/w”.

For `CCCOc1ccc([C@H]2CNC(=O)N2c2ccc3[nH]cnc3c2)cc1` [Varoglutamstat free base, (S)-1-(1H-benzo[d]imidazol-5-yl)-5-(4-propoxyphenyl)imidazolidin-2-one], the “crystallinity (by XRPD)” value [3] was “none” and the hygroscopicity [4] was “high”.
